By UniProt entry, the sequences of proteins in these tests, tags left out.
UniProt Q16445, whole entry: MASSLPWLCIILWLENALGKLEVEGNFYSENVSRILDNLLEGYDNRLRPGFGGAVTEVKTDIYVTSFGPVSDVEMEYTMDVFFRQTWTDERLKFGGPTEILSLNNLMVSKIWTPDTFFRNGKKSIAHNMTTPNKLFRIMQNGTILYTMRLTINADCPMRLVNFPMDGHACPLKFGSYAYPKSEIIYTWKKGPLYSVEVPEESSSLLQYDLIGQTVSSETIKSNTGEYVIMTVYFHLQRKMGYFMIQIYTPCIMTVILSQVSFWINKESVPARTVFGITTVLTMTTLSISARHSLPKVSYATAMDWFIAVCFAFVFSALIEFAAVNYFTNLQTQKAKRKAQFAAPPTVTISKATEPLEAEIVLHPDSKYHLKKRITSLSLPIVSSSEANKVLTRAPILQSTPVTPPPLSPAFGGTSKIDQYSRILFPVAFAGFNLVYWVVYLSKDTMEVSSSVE

In ChEMBL document CHEMBL1129572, “Synthesis and pharmacological properties of novel 8-substituted imidazobenzodiazepines: high-affinity, selective probes for alpha 5-containing GABAA receptors” (J Med Chem, 1996):

Tests used:
[1] = target: T1, GABA-A receptor; alpha-1/beta-2/gamma-2 (Homo sapiens, UniProt P14867+P18507+P47870); assay: Binding affinity for human GABA-A receptor alpha-1-beta-2-gamma-2 expressed in L(tk-) cell membranes
T1 sequence (P14867 whole entry): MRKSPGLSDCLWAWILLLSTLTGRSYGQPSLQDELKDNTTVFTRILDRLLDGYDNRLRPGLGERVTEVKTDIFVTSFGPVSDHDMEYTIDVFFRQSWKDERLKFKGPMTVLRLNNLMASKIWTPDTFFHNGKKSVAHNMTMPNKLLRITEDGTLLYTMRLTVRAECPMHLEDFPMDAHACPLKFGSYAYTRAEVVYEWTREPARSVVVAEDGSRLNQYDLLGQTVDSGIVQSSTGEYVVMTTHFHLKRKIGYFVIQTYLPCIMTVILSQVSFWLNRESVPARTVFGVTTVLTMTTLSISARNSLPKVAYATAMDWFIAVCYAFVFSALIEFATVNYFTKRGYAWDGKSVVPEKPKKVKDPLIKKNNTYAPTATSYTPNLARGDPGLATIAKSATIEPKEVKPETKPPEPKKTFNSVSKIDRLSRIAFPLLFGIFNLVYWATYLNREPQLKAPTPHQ
T1 sequence (P47870 whole entry): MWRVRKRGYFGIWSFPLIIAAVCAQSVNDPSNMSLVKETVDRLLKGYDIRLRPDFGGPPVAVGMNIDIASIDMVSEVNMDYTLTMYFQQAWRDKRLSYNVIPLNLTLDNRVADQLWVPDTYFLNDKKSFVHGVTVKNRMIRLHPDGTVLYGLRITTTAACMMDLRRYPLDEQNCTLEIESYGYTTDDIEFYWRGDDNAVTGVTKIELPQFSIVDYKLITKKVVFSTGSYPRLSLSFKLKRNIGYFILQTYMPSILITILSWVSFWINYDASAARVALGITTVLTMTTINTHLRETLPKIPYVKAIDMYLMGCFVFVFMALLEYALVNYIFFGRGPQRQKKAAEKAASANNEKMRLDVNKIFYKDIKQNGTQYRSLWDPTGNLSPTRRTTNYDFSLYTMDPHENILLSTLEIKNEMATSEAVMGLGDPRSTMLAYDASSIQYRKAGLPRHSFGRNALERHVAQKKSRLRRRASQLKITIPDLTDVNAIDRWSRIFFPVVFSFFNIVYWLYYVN
T1 sequence (P18507 whole entry): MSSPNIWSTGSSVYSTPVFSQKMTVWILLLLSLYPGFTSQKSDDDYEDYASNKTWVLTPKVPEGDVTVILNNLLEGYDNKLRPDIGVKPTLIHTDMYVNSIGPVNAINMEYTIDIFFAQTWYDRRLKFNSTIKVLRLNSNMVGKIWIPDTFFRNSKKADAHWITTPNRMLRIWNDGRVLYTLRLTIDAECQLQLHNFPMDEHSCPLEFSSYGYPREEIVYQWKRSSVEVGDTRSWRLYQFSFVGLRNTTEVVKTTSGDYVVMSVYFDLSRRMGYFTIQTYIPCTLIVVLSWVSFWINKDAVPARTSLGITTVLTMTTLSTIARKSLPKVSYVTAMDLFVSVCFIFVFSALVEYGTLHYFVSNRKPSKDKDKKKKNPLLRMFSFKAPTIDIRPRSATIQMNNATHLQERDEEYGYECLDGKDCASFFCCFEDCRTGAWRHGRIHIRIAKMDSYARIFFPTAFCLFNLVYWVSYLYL
Outline: (§1)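 Competition binding on membranes of Ltk cells expressing human αxβ2γ2 receptors. Radioligand was [3H]Ro 15-1788, or [3H]Ro 15-4513 for α6β2γ2. Ki is the mean of two determinations differing by less than 10%.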

[2] = target: T2, GABA A receptor alpha-3/beta-2/gamma-2 (Homo sapiens, UniProt P18507+P34903+P47870); assay: Binding affinity for human GABA-A receptor alpha-3-beta-2-gamma-2 expressed in L(tk-) cell membranes; outline: as §1
T2 sequence (P47870 whole entry): T1 sequence (P47870 whole entry)
T2 sequence (P18507 whole entry): T1 sequence (P18507 whole entry)
T2 sequence (P34903 whole entry): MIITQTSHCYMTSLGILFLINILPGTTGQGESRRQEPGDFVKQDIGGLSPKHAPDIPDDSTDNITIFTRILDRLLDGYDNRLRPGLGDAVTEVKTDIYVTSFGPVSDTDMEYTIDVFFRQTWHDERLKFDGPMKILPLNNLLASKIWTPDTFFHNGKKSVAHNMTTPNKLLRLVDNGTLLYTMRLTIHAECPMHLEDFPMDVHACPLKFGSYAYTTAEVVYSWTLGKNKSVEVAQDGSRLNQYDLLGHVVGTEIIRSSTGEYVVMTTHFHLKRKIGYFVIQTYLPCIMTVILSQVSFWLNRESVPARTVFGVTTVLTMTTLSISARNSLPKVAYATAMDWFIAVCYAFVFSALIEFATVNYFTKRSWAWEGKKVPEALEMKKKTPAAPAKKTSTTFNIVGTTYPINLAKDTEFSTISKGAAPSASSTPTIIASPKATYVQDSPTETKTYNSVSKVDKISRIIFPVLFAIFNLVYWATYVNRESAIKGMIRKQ

[3] = target: T3, GABA A receptor alpha-2/beta-2/gamma-2 (Homo sapiens, UniProt P18507+P47869+P47870); assay: Binding affinity for human GABA-A receptor alpha-2-beta-2-gamma-2 expressed in L(tk-) cell membranes; outline: as §1
T3 sequence (P47870 whole entry): T1 sequence (P47870 whole entry)
T3 sequence (P18507 whole entry): T1 sequence (P18507 whole entry)
T3 sequence (P47869 whole entry): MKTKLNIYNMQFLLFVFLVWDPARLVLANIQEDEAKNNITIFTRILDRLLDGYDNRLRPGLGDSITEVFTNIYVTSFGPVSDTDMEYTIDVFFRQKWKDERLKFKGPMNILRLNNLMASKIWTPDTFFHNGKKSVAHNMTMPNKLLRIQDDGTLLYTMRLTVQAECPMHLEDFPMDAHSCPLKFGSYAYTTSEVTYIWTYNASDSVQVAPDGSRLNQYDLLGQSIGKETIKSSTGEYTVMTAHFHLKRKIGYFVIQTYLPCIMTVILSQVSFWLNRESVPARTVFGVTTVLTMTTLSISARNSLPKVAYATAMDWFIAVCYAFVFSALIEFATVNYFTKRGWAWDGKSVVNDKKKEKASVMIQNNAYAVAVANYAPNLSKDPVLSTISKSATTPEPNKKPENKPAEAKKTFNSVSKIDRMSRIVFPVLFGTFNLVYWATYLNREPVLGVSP

[4] = target: GABA A receptor alpha-6/beta-2/gamma-2 (Homo sapiens, UniProt P18507+P47870+Q16445); assay: Binding affinity for human GABA-A receptor alpha-6-beta-2-gamma-2 expressed in L(tk-) cell membranes; outline: as §1

**Q.** What does the source list for `CCOC(=O)c1ncn2c1CN(C)C(=O)c1cc(N=[N+]=[N-])ccc1-2` [Ro-154513]?
**A.** Ki [1]: 3.3 nM; Ki [2]: 2.5 nM; Ki [3]: 2.6 nM; Ki [4]: 3.8 nM
